Data taken from publication PMC12048556.

Target: BIM (UniProt O43521)
Assay: HA-tag co-IP, BIM blot
Conditions: sites S62

Substance | binding against the reference (reference: wild-type HA-BCL-XL in H2030 EV) | binding against the reference (reference: wild-type HA-BCL-XL in MGH1112-1 EV)
BCL-XL (from UniProt Q07817) S62A in H2030 EV | stronger | 
BCL-XL (from UniProt Q07817) S62A in MGH1112-1 EV |  | stronger
